Measured values as given in patent US9993454B2, “Solid nanoparticle formulation of water insoluble pharmaceutical substances with reduced Ostwald ripening” (Luminus Biosciences, Inc., priority 2006, dated 2018).

Test: Particle size by photon correlation spectroscopy (Malvern Zetasizer)
Assay type: physicochemical
Procedure: The particle size of the suspension was determined by photon correlation spectroscopy with a Malvern Zetasizer. 2.5 gms of the cryoprotectant trehalose dihydrate (Sigma-Aldrich Co, USA) was dissolved in 10 mL of sterile Type I water and the solution was added to the suspension so that the concentration of trehalose dihydrate in the suspension was in the range of 4-9% by weight. The suspension was sterile-filtered through a 0.22 μm filter (Nalgene, USA). The particle size of the suspension was between 30 and 220 nm. The suspension was frozen below −40° C. and lyophilized. The lyophilized cake was reconstituted prior to further use. One aliquot of the reconstituted solution was stored at 25° C. and the other was stored at 2-6° C. The particle size of the two aliquots were monitored at 24° C. and over a period of eight hours. The particles in both the samples begin to change after 1-2 hours and started precipitating after 4 hours due to Ostwald ripening (FIG. 6). The formulation containing the above composition was designated as unstable due to Ostwald ripening.
(§1) The particle size of the suspension was determined by photon correlation spectroscopy with a Malvern Zetasizer. 2.5 gms of the cryoprotectant trehalose dihydrate (Sigma-Aldrich Co, USA) was dissolved in 10 mL of sterile Type I water and the solution was added to the suspension so that the concentration of trehalose dihydrate in the suspension was in the range of 4-9% by weight. The suspension was sterile-filtered through a 0.22 μm filter (Nalgene, USA). The particle size of the suspension was between 30 and 220 nm. The suspension was frozen below −40° C. and lyophilized. The lyophilized cake was reconstituted prior to further use. One aliquote of the reconstituted solution was stored at 25° C. and the other was stored at 2-6° C. The particle size of the two aliquots were monitored at 24° C. over a period of 8 days (FIG. 7). […] The formulation containing the above composition was designated as stable due to Ostwald ripening.
as §1, with “use” for “use.”, “days.” for “days (FIG. 7).”
The particle size of the suspension was determined by photon correlation spectroscopy with a Malvern Zetasizer. […] The particle size of the two aliquots were monitored at 24° C. over a period of 8 days (FIG. 8). […]
The particle size of the suspension was determined by photon correlation spectroscopy with a Malvern Zetasizer. […]

[1] = 4% albumin after homogenization
[2] = 4% albumin after homogenization with chloroform/ethanol and evaporation

Q: For “Example 6: 4% human albumin solution homogenized at high pressure with chloroform and ethanol, then evaporated; no drug”, which “volume fraction of peak around 5-8 nm” value [1] is on record?
A: ~99 % by volume

Q: And the “volume fraction of peak around 120-140 nm” value [1]?
A: less than 1 % by volume

Q: What about the “particle size, first peak” value [2] of the same substance?
A: 5-8 nm

Q: And the “particle size, second peak” value [2]?
A: 120-140 nm

Q: What about the “albumin molecules aggregated by denaturation” value (homogenization in oil-in-water emulsion) of the same substance?
A: 2-3%
